miR-21 reporter: miR-21 reporter, rising signal; HeLa miR-21 FLuc reporter, luciferase, 48 h; Potency, µM (titrated, usually from 38.3 µM), without a hit: top-dose reporter change, positive = more light; AID 2288; 340,000 tested, under 10 active; active = well fitted rising curve with a large enough effect; inconclusive = small, poorly fitted or top-dose-only effect; inactive = no such curve, though single readings can be large or run the other way;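 further: % of control where 0% means no effect; miR-21 action dims this reporter so a rising signal means less miR-21 action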
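Luminescence from a firefly luciferase reporter carrying a miR-21 binding site downstream, stably expressed under a CMV promoter in HeLa cells that make miR-21 endogenously, reports miRNA modulation after 48 h compound exposure up to approximately 40uM final.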
DT40 TDP1 no CPT: qHTS for Inhibitors of human tyrosyl-DNA phosphodiesterase 1 (TDP1): qHTS in cells in absence of CPT; Potency, µM (doses to about 46.2 µM), inactives show at the highest dose activity change, negative = growth inhibition, hits mostly inhibitors; hit rate 15% among 420,000; DT40 Tdp1-/- hTDP1 cells, no CPT, ATP luminescence, 48 h; note: potency is the fitted concentration of half-maximal effect; % is set by controls: 0 for no effect and ±100 for the full control effect; nearly all actives have a fitted effect of over 55% in size
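No-CPT arm: Tdp1-/-;hTDP1 DT40 cells (400/well) plus compounds, incubated ≥48 hr at 37 °C. Readout CellTiter-Glo luminescence.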
TDP1 block: inhibitors of human tyrosyl-DNA phosphodiesterase TDP1; recombinant TDP1, AlphaScreen DNA substrate cleavage; Potency, µM (top dose mostly 130 µM), without a hit: at the top dose activity change, negative = inhibition, usual class: inhibitors; hit rate 0.28% among 350,000; note: potency is the fitted concentration of half-maximal effect; % is set by controls: 0 for no effect and ±100 for the full control effect; nearly all actives have a fitted effect of over 40% in size
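Here, a 5' biotin and 3' phosphotyrosine-FITC DNA oligonucleotide reports Tdp1 activity: intact substrate bridges AlphaScreen beads, while cleavage leaves a 3' phosphate and drops signal. All incubations at room temperature.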
DT40 TDP1 CPT: growth inhibition of DT40 Tdp1-/-;hTDP1 cells with camptothecin (screen for TDP1 inhibitors) | chicken DT40 Tdp1-/-;hTDP1 cells + 20 nM CPT, ATP luminescence, 48 h | Potency, µM (titrated, usually from 46.2 µM), for the others: at the top dose activity change, negative = growth inhibition, usual class: inhibitors | hit rate 12% among 420,000 | AID 686979; note: potency is the fitted concentration of half-maximal effect; % is set by controls: 0 for no effect and ±100 for the full control effect; nearly all actives have a fitted effect of over 55% in size
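Chicken DT40 Tdp1-/- cells complemented with human TDP1, 400 cells/well, exposed to compounds plus 20 nM camptothecin for at least 48 h at 37 C; viability read as ATP content by CellTiter-Glo luminescence.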
uPA surface inh: blocks generation of uPA at the cell surface; cell surface uPA generation assay, qHTS; Potency, µM (doses to about 38.3 µM), for the others: top-dose activity change, negative = inhibition, actives largely listed as inhibitors; hit rate 0.31% among 330,000; AID 540303; active = well fitted inhibition curve with a large enough effect; inconclusive = small, poorly fitted or top-dose-only effect; inactive = no such curve, though single readings can be large or run the other way; tested in mouse RAW 264.7 cells; note: potency is the fitted concentration of half-maximal effect; % is set by controls: 0 for no effect and ±100 for the full control effect; nearly all actives have a fitted effect of over 55% in size
An asterisk follows results filed as active; ? = inconclusive; · = not tested or not shown; [ ] = another dose, or the depositor's remark. Rows were chosen to be rich in hits. Some 16% of all compounds tested hit in one or more screens of this group. Unless noted, calls come from the whole dose curve; as a rule, active = well fitted curve in the direction sought with a large enough effect; inconclusive = small, poorly fitted or top-dose-only effect, or another doubt; inactive = no such curve, though single readings can be large; an effect the other way counts as inactive or inconclusive.

The line under a structure holds: DT40 TDP1 CPT	TDP1 block	miR-21 reporter	DT40 TDP1 no CPT	uPA surface inh
CCOC(=O)c1sc2nc(CC(=O)OC)nc(N3CCN(c4ccc(OC)cc4)CC3)c2c1C
  23µM*	3%	18%	23µM*	0%
CCOC(=O)c1sc2nc(C)nc(N3CCN(S(=O)(=O)c4ccccc4)CC3)c2c1C
  8.2µM*	2%	·	6.5µM*	1%
CCOC(=O)c1sc2nc(C)nc(NCc3ccccc3)c2c1C
  10µM*	·	-3%	21µM*	9%
CCOC(=O)c1sc2nc(CC(=O)OC)nc(NCCN3CCOCC3)c2c1C
  -6%	6%	2%	?	-11%
Cc1cccc(C)c1NC1=NC(=S)N(c2ccc(C(=O)O)cc2)C12CCCCC2
  3%	0%	-1%	15%	4%
COc1ccc(-c2cc3ccc(O)c(CN4CCCC(C)C4)c3oc2=O)cc1OC (configuration not stated)
  ·	4%	-8%	·	·
O=[N+]([O-])c1cc(-c2nc(-c3ccccn3)no2)ccc1NCc1ccccc1
  -28%	-3%	0%	-24%	·
Cc1cccc(NC(=O)c2ccc3[nH]c(=O)c(=O)[nH]c3c2)n1
  -9%	-9%	-3%	?	10%
COc1cc(C(=O)OC2CC[C@]3(C)C4CCC5[C@]6(O)CC(O)[C@]7(O)C(CN8CC(C)CCC8[C@]7(C)O)[C@]6(O)C[C@@]53O[C@]24O)cc(OC)c1OC (some centres not stated)
  0%	10%[56.1 µM]	·	-2%	·
CCOC(=O)c1sc2nc(C)[nH]c(=S)c2c1C
  ?	0%	-5%	21µM*	0%
CCOC(=O)c1sc2nc(C)n(N)c(=O)c2c1C
  12%	6%	-8%	4%	4%
Cc1nc(N2CCN(S(=O)(=O)c3cccs3)CC2)c2c(-c3ccccc3)c(C)sc2n1
  ?	·	·	13µM*	·
C[N+](C)(C)CCC(=O)c1cccc2ccccc12
  0.58µM*	17%[56.1 µM]	·	0.92µM*	·
CCC1CN(C(=O)N2CCC(C(=O)NCCc3ccc(OC)cc3OC)CC2)c2ccccc2O1 (configuration not stated)
  26µM*	4%	-1%	?	-15%
CCC1CN(C(=O)N2CCC(C(=O)NCCc3ccccc3OC)CC2)c2ccccc2O1 (configuration not stated)
  ?	1%	13%	13µM*	1%
O=C1CCCC2=C1C1O[C@](CCCCN3C(=O)c4ccccc4C3=O)(Cc3ccccc31)O2
  ·	·	1%[7.66 µM]	·	·
COc1ccc(OC)c(C2C(C#N)=C(N)N(N(C)C)C3=C2C(=O)CCC3)c1 (configuration not stated)
  24%	·	3%	15%	0%
COc1ccc(/C=N/n2cnc3c([nH]c4ccccc43)c2=O)cc1CO
  ?	5%	-1%	?	-4%
COc1ccc(/C=N/n2cnc3c([nH]c4ccc(Br)cc43)c2=O)cc1CN1CCOCC1
  16µM*	1%	0%	?	-5%
CCc1c(-c2n[nH]c(=S)n2Cc2ccccc2)csc1C
  5.8µM*	0%	3%	4.6µM*	2%
Oc1ccc(-c2n[nH]c(=S)n2Cc2ccccc2)cc1
  -8%	-1%	-6%	-25%	-3%
CCOc1ccc(Cc2n[nH]c(=S)n2Cc2ccccc2)cc1
  ?	1%	-11%	16µM*	-10%
Cc1ccc(OCc2n[nH]c(=S)n2Cc2ccccc2)cc1
  -2%	5%	1%	-12%	-1%
Cc1scc(-c2n[nH]c(=S)n2Cc2ccccc2)c1C
  -23%	3%	0%	-5%	13%
COc1ccc(-n2c(-c3ccc(C(C)(C)C)cc3)n[nH]c2=S)c(OC)c1
  16µM*	·	·	23µM*	·
COc1ccc(-c2n[nH]c(=S)n2-c2cc(OC)ccc2OC)cc1
  -29%	·	6%	-24%	-3%
CCCCOc1ccc(-c2n[nH]c(=S)n2Cc2ccccc2)cc1
  ?	·	-10%	26µM*	-2%
Cn1c(CN2CCOCC2)nnc1SCC(=O)Nc1ccc([N+](=O)[O-])cc1O
  -6%	-3%	17%	0%	10%

Pulled by compound from the list above, 3 records:
The line under a structure holds: DT40 TDP1 CPT	TDP1 block	miR-21 reporter	DT40 TDP1 no CPT	uPA surface inh
COc1ccc(-n2c(-c3ccc(C(C)(C)C)cc3)n[nH]c2=S)c(OC)c1
  16µM*	·	·	23µM*	·
Cc1ccc(OCc2n[nH]c(=S)n2Cc2ccccc2)cc1
  -2%	5%	1%	-12%	-1%
CCCCOc1ccc(-c2n[nH]c(=S)n2Cc2ccccc2)cc1
  ?	·	-10%	26µM*	-2%
